Source: publication PMC6117024, “NOP receptor pharmacological profile – A dynamic mass redistribution study” (PLoS ONE, 2018)

Legend:
[1] = tested on: NOP receptor (mouse vas deferens); conditions: cited from earlier work
[2] = tested on: NOP receptor (mouse colon); conditions: cited from earlier work
[3] = tested on: mice; conditions: cited from earlier work
[4] = tested on: mice; conditions: cited from earlier work; remark: listed apart in the source
[5] = tested on: mice; conditions: blocking N/OFQ-induced bradycardia and hypotension; cited from earlier work
[6] = tested on: NOP receptor; conditions: cited from earlier work
[7] = tested on: NOP receptor; conditions: cited from earlier work; remark: listed apart in the source
[8] = tested on: CHO cells; assay: DMR in wild type CHO cells; conditions: 1 μM, 37°C, pm ± sem, * p < 0.05 vs buffer (one-way ANOVA, Dunnett's)

C[C@H](NC(=O)CNC(=O)[C@@H](NC(=O)[C@H](Cc1ccccc1)NC(=O)CNC(=O)CNC[C@@H](N)Cc1ccccc1)[C@@H](C)O)C(=O)N[C@@H](CCCNC(=N)N)C(=O)N[C@@H](CCCCN)C(=O)N[C@@H](CO)C(=O)N[C@@H](C)C(=O)N[C@@H](CCCNC(=N)N)C(=O)N[C@@H](CCCCN)C(N)=O
NOP activity in mouse vas deferens [1]: NOP antagonist | NOP activity in mouse colon [2]: NOP full agonist | NOP activity in tail withdrawal assay [3]: full agonist | NOP activity on locomotor activity [4]: partial agonist | NOP activity in cardiovascular system [5]: pure antagonist | efficacy vs N/OFQ, NOP/G protein interaction [6]: significantly lower efficacy than N/OFQ | efficacy vs N/OFQ, GTPγS binding [7]: significantly lower efficacy than N/OFQ | DMR response, CHO [8]: 24±2 pm
